Data from patent US20030147936A1, “Prostatic hormonal implants treatment of prostate cancer” (priority 2002, published 2003).

System: recurrent poor prognostic prostate cancer
Conditions: DES 1 mg three times per day by mouth; follow-ups
Method: Since this hormonal treatment was rendered at recurrence after radiation therapy, it is termed as secondary hormonal treatment.
Later it was reduced to 1 mg per day.

CC/C(=C(/CC)c1ccc(O)cc1)c1ccc(O)cc1 [DES, diethylstilbestrol]
duration of maintained biochemical tumor control: four
